Assays:
[1] = target: CDK5/p25 (Homo sapiens, UniProt Q00535); test: CDK5 mobility shift assay (enzymatic activity of CDK5/p25); format: biochemical
Procedure: (§1) Compound potency was measured via a change in the enzymatic activity of CDK5/p25, and optionally of CDK2/CycA2. Enzymes, CDK5/p25 and CDK2/CycA2, were sourced from Carna Biosciences (Cat #04-106 and 04-103, respectively). Test compound stocks were diluted in 100% DMSO and serially diluted 3-fold in a 384-well plate using a TECAN EVO200 (TECAN). Staurosporine was used as a reference control compound in all assays.
(§2) Twenty nL of compound were transferred into a 384-well plate (Greiner 781201) using an Echo550 (Labcyte Inc). Enzyme, ATP, and 10 mM MgCl2 were preincubated at room temperature with the compound in assay buffer (50 mM HEPES pH 7.5, 1 mM EGTA, 0.01% Brij-35, 0.05% BSA, 2 mM DTT) for 30 minutes. Peptide substrate (FL peptide 29 (Perkin Elmer) for CDK5/p25; FL Peptide 18 (Perkin Elmer) for CDK2/CycA2) was added to initiate the reaction. […]
(§3) The CDK5/p25 reaction was incubated at room temperature for 60 min. […] Samples were analyzed using the EZ Reader (Perkin Elmer).
(§4) The results were expressed as % vehicle, where % vehicle=100×(U−C2)/(C1−C2), where U is the signal of sample, C1 is the average of the high controls (signal with no compound added), and C2 is the average of low controls (signal with the buffer in place of enzyme). The ICso is determined by fitting the percentage of inhibition as a function of compound concentrations using a 4-parameter fit defined as follows. […]

Chains of the proteins cited; added tags and fusions are not shown.
UniProt Q00535, whole entry, looked up: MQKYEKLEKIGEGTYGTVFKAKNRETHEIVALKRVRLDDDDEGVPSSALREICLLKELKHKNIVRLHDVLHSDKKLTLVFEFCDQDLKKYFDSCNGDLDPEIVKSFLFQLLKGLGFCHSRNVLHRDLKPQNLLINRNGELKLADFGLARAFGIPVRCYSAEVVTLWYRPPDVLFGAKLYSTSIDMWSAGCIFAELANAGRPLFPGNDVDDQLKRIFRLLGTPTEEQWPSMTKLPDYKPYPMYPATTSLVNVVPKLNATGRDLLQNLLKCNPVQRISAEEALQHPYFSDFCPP

[2] = target: CDK2/CycA2 (Homo sapiens, UniProt P24941); test: CDK2 mobility shift assay (enzymatic activity of CDK2/CycA2); format: biochemical; conditions: read-out: CDK2 IC50; 1.25 nM CDK2/CycA2, 37 μM ATP, FL Peptide 18, 120 min at room temperature
Procedure: as §1, §2, §3, §4

**Q.** How did the CDK5/CDK2 specificity ([1]; fold more active against CDK5 than CDK2) turn out when O=C(O)C(=O)N(c1ccc2cnc(Nc3ccc(-n4cccn4)cc3F)cc2n1)C1CCNCC1 was run?
**A.** + (10-fold or less more active against CDK5 than CDK2)

**Q.** What about the IC50 ([1]; read-out: CDK5 IC50, 0.154 nM CDK5/p25, FL peptide 29, 60 min at room temperature) of the same compound?
**A.** > 1000 nM

**Q.** And the IC50 [2]?
**A.** > 1000 nM

Reference: US20220389009A1, “SUBSTITUTED 1,6-NAPHTHYRIDINE INHIBITORS OF CDK5” (Goldfinch Bio, Inc., priority 2019, published 2022)
